Legend:
[1] = substrate: Nc1nc(F)c2ncn(COC(CO)CO)c2n1; experiment: (§1) Michaelis-Menten constant for Calf intestinal mucosa adenosine deaminase was determined
[2] = substrate: Nc1nc(F)c2ncn(COCCO)c2n1; experiment: as §1
[3] = substrate: Nc1nc(Cl)c2ncn(COCCO)c2n1; experiment: as §1
[4] = substrate: Nc1nc(Cl)c2ncn(COC(CO)CO)c2n1; experiment: as §1
[5] = substrate: Nc1nc(N)c2ncn(COC(CO)CO)c2n1; experiment: as §1
[6] = substrate: Nc1nc(N)c2ncn(COCCO)c2n1; experiment: as §1
[7] = substrate: Nc1nc(F)c2ncn(COC(CO)CO)c2n1; experiment: (§2) Vmax for Calf intestinal mucosa adenosine deaminase was determined
[8] = substrate: Nc1nc(F)c2ncn(COCCO)c2n1; experiment: as §2
[9] = substrate: Nc1nc(Cl)c2ncn(COCCO)c2n1; experiment: as §2
[10] = substrate: Nc1nc(Cl)c2ncn(COC(CO)CO)c2n1; experiment: as §2
[11] = substrate: Nc1nc(N)c2ncn(COC(CO)CO)c2n1; experiment: as §2
[12] = substrate: Nc1nc(N)c2ncn(COCCO)c2n1; experiment: as §2

B1: Adenosine deaminase (Bos taurus), P56658 (protein)
chain: MAQTPAFNKPKVELHVHLDGAIKPETILYYGRKRGIALPADTPEELQNIIGMDKPLSLPEFLAKFDYYMPAIAGCREAVKRIAYEFVEMKAKDGVVYVEVRYSPHLLANSKVEPIPWNQAEGDLTPDEVVSLVNQGLQEGERDFGVKVRSILCCMRHQPSWSSEVVELCKKYREQTVVAIDLAGDETIEGSSLFPGHVKAYAEAVKSGVHRTVHAGEVGSANVVKEAVDTLKTERLGHGYHTLEDATLYNRLRQENMHFEVCPWSSYLTGAWKPDTEHPVVRFKNDQVNYSLNTDDPLIFKSTLDTDYQMTKNEMGFTEEEFKRLNINAAKSSFLPEDEKKELLDLLYKAYGMPSPASAEQCL
- Km [1]: 542 µM
- Km [2]: 341 µM
- Km [3]: 103 µM
- Km [4]: 290 µM
- Km [5]: 554 µM
- Km [6]: 268 µM
- Vmax (uM min-1 unit-1) [7]: 0.00773
- Vmax (uM min-1 unit-1) [8]: 0.012
- Vmax (uM min-1 unit-1) [9]: 0.000341
- Vmax (uM min-1 unit-1) [10]: 0.000326
- Vmax (uM min-1 unit-1) [11]: 0.000104
- Vmax (uM min-1 unit-1) [12]: 0.000816
